Assay [1] deals with Lewis Lung Carcinoma cells (LLC). The experiment in a line: Mouse lung cancer cell transplantation model, hydrogen gas inhalation.
Assay [2] deals with pancreatic cancer. The experiment in a line: Case of stage 4 pancreatic cancer with liver metastasis, hydrogen gas inhalation. The note with it: hydrogen 6.6% by volume, 90 minutes twice a day.
For assay [3], the system named is lung adenocarcinoma. The experiment in a line: Case of lung adenocarcinoma with spine metastases, continuous hydrogen gas inhalation.
Assay [4] has as its system undifferentiated soft tissue sarcoma. The experiment in a line: Case of undifferentiated soft tissue sarcoma metastasized to the lungs, hydrogen gas inhalation. The note with it: 3 months after inhalation started; hydrogen 6.6% by volume, 60 to 90 minutes once or twice a day.

For hydrogen, the “mice with no engraftment of the lung cancer cells detected” value in assay [1] (hydrogen 3.5%, atmospheric pressure of 1.35, 1 hour a day for 7 days from day 8, group of 5 mice) worked out at 2. Also, the “mice with metastasis of the lung cancer cells to other organs” value in assay [1] (hydrogen 3.5%, atmospheric pressure of 1.35, 1 hour a day, visual observation of dissected mice, control: 2 among 4 mice) is “no mouse among 5 mice”. Moreover, the “cell densities of lung cancer cells in HE-stained lung tissue” value in assay [1] (optical microscope x200 and x400, control: high cell densities) is “comparatively low”. Further, the “change in size of the pancreatic cancer and the cancers metastasized to the liver” value in assay [2] (2 months after inhalation started) and in assay [2] (6 months after inhalation started) was “no change detected” throughout. Further, in assay [3] (Dec. 22, 2018, hydrogen 6 to 7% by volume, 2 to 3 hours/day from Oct. 17, 2018), the “tumors metastasized to the spine by CT examination” value is “regression”. Besides, the CEA value in assay [3] (Dec. 27, 2018, hydrogen inhalation from Oct. 17, 2018) is reported as 2.6 ng/mL; in assay [3] (Jan. 28, 2019, hydrogen inhalation from Oct. 17, 2018), 1.5 ng/mL; in assay [3] (Nov. 26, 2018, hydrogen 6 to 7% by volume, 2 to 3 hours/day from Oct. 17, 2018, 34.5 in July 2018 before inhalation), 10 ng/mL. Also, in assay [4], the “change in size of lung sarcomas” value is given as “no change detected”.

These data come from US20200078393A1, “COMPOSITION COMPRISING HYDROGEN GAS FOR SUPPRESSION OR PREVENTION OF CANCER METASTASIS” (MiZ Company Limited, priority 2018, published 2020).
